# Laboratory results from PubChem BioAssay AID588458 (Sanford-Burnham Center for Chemical Genomics, 2011).
# By UniProt entry, the sequences of proteins in these tests, tags left out. Residues count along the entry.
# UniProt P26358, 504-1616 limits assumed: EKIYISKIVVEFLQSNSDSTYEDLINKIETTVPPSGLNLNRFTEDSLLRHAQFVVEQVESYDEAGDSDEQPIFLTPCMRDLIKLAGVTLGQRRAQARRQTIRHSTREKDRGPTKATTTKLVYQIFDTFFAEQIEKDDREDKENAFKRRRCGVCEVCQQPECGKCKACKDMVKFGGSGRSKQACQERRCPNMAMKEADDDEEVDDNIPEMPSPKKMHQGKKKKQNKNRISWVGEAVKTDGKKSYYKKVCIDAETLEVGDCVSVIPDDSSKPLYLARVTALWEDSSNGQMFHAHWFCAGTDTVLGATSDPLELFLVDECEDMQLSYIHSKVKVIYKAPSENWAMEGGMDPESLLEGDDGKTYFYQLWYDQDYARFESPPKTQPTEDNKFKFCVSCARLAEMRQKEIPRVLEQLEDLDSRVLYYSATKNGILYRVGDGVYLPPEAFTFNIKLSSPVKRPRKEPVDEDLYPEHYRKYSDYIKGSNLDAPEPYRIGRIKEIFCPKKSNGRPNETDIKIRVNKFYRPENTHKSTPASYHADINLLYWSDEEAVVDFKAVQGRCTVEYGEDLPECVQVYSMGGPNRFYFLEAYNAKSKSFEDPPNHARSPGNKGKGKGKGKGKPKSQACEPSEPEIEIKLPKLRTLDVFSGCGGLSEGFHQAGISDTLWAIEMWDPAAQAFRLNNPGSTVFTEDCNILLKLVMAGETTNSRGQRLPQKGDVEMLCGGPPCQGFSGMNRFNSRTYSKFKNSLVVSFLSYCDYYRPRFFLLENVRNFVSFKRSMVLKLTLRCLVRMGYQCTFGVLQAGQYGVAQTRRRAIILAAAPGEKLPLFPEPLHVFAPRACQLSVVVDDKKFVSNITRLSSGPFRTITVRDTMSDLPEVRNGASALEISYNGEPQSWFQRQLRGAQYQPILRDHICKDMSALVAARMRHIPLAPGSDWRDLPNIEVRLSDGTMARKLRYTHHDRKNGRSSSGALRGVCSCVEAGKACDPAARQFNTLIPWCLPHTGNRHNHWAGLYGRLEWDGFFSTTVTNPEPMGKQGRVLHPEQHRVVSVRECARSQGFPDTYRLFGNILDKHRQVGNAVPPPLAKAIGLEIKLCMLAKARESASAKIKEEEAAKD
# The entries are a selection whose mix differs from that of the whole data set. The source made the active and inactive calls. No stated cut-off is given here; in the data, active means inhibition above about 50%; inactive means the rest.
# Target: DNA (cytosine-5)-methyltransferase 1 (Homo sapiens) (UniProt P26358)
# Assay: inhibition of DNA methyltransferase DNMT1 – biochemical, molecular beacon, fluorescence, HinP1I cleavage, uHTS, primary screen (AID 588458)
# Settings: at 10 µM, hits give high values
row,Compound,inhibition (reported as % activation of signal)
1,CCC(=O)N(c1ccccc1)C1(COC)CCN(CCc2cccs2)CC1,inactive: 1.71%
2,CCC(=O)N(c1ccccc1)C1(COC)CCN(CCn2nnn(CC)c2=O)CC1,inactive: -1.96%
